Assay results reported in ChEMBL document CHEMBL3867477 (Bioorg Med Chem Lett, 2016).

Amino acid sequences for entries named in this document (tags omitted).
UniProt O43614, whole entry: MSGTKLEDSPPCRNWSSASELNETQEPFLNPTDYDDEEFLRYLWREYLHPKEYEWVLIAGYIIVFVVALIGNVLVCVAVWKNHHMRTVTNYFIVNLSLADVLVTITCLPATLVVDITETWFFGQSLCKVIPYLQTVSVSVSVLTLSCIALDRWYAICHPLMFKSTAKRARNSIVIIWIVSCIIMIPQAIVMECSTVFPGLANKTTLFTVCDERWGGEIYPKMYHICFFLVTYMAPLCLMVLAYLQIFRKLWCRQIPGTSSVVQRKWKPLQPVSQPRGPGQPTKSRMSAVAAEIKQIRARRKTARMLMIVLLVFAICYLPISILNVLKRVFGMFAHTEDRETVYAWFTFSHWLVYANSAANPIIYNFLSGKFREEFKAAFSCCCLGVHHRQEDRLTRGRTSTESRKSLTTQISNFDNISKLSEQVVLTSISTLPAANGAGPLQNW

Target: Orexin receptor type 2 (Homo sapiens, UniProt O43614)
Assay: Displacement of (2S)-N-(2-pyrrol-1-ylphenyl)-1-[2-[1-(tritritiomethyl)benzimidazol-2-yl]sulfanylacetyl]pyrrolidine-2-carboxamide from human OX2 receptor expressed on CHO cell membrane measured after 3 hrs by TopCount method
Assay type: cell membranes

- Ki: 417 nM
SMILES: COc1ccc(C[C@H]2c3cc(OC)c(OC)cc3CCN2[C@@H](C(=O)NC(C)C)c2ccccc2)cc1OC
